Values of other authors as cited in patent publication US11541063B2, “Compositions and products for use in the treatment of bone fractures and defects” (priority 2014, dated 2023).

Tested on: androgen receptor
Settings: fraction of testosterone potency; cited from earlier work

For `C[C@]12CC[C@@H](O)C[C@@H]1CC[C@@H]1[C@@H]2CC[C@]2(C)C(=O)CC[C@@H]12` [androsterone], the “potency relative to the potency of testosterone” value is given as “approximately 1/7”.
